Broadly, the Kd is the concentration at which binding is half-saturated. Higher therefore signals weaker binding. Broadly, the koff is the rate constant with which the complex falls apart. Higher therefore signals fast dissociation. In general, kon refers to the rate constant with which the complex forms.

This note sets out measurements from patent US20190315854A1 (BEIJING VDJBIO, published 2019).

Like-named read-outs stand apart in the source and are kept apart here.

Assay [1] has as its target T1, sIL-6R (soluble IL-6 receptor; SBH Sciences) (human, UniProt P08887 20-365).
T1 construct: also called human IL-6R
T1 sequence: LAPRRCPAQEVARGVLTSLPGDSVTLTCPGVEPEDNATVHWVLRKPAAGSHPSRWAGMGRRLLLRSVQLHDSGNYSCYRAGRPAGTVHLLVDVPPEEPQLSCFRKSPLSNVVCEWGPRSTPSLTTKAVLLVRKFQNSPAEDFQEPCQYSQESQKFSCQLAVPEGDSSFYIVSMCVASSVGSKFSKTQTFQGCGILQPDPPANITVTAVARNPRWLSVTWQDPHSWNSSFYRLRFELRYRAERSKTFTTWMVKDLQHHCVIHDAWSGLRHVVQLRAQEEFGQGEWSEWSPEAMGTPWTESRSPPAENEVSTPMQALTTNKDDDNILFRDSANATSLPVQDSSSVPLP
Kind of assay: SPR (BIAcore 3000), antibody on chip, sIL-6R analyte, 25 C. How it is done: (§1) All SPR measurements were performed on a BIAcore 3000 instrument (GE Biosciences, Piscataway, N.J.). BIAcore Software-BIAcore 3000 Control Software V3.2 was used for the operation and control of the BIAcore 3000 instrument. BiaEvaluation Software V4.1 was used for the analysis of SPR data from the BIAcore 3000 instrument and data was plotted using Graph Pad Prism Software Version 5. […] The indicated antibodies were used as the ligand for the construction of the reference channel of the chip. […] Each sample was injected for 3 min at a flow rate of 30 μL/min to allow for binding to chip-bound antibody. Next, binding buffer without analyte was sent over the chip at the same flow rate to allow for dissociation of bound analyte. After 500s, remaining bound analyte was removed by injecting regeneration solution (1M Formic acid). Data was analyzed by using the Kinetics Wizard and the manual fitting programs that are both included with the BiaEvaluation Software V4.1.
A general note: In SPR one partner is held on a chip, and binding of the other changes the refractive index at the surface.

Assay [2] deals with T1, sIL-6R (soluble IL-6 receptor; SBH …). The description is as above. Here is the method: as §1
The source holds these as a separate data set.

B1: 2# (antibody, human IgG1, kappa)
heavy: QVQLQESGPGLVRPSQTLSLTCTVSGYSITSDHAWSWVRQPPGRGLEWIGYISYSGITTYNPSLKSRVTMLRDTSKNQFSLRLSSVTAADTAVYYCARCLARTTAMDYWGQGSLVTVSSASTKGPSVFPLAPSSKNTSGGTAALGCLVKDYFPEPVTVSWNSGALTSGVHTFPAVLQSSGLYSLSSVVTVPSSSLGTQTYICNVNHKPGNTKVDKKV[letters of human IgG1 Fc not shown]
light: DIQMTQSPSSLSASVGDRVTITCRASQDISSYLNWYQQKPGKAPKLLIYYTSRLHSGVPSRFSGSGSGTDFTFTISSLQPEDIATYYCQQGNTLPYTFGQGTKVEIKRTVAAPSVFIFPPSDEQLKSGTASVVCLLNNFYPREAKVQWKVDNALQSGNSQESVTEQDSKDSTYSLSSTLTLSKADYEKHKVYACEVTHQGLSSPVTKSFNRGEC
notes: also called Sample # 2
As to B1, in assay [1], the Kd amounted to 432 pM, the “Relative Affinity” value is 3.1 fold vs 25 (Tocilizumab), the koff turned out to be 8.51e-05 s⁻¹ and the kon turned out to be 197000 M⁻¹ s⁻¹. In assay [2], the Kd was 585 pM, the “Relative Affinity” value is 2.9 fold vs 25 (Tocilizumab), the koff came to 0.000117 s⁻¹ and the kon amounted to 200000 M⁻¹ s⁻¹.

B2: 50# (antibody, human IgG1, kappa)
heavy: QVQLQESGPGLVRPSQTLSLTCTVSGYSITSDHAWSWVRQPPGRGLEWIGYISYSGITTYNPSLKSRVTMLRDTSKNQFSLRLSSVTAADTAVYYCARCLARTTAMDYWGQGSLVTVSSASTKGPSVFPLAPSSKSTSGGTAALGCLVKDYFPEPVTVSWNSGALTSGVHTFPAVLQSSGLYSLSSVVTVPSSSLGTQTYICNVNHKPSNTKVDKKV[letters of human IgG1 Fc not shown]
light: DIQMTQSPSSLSASVGDRVTITCRASQDISSYLNWYQQKPGKAPKLLIYYTSRLHSGVPSRFSGSGSGTDFTFTISSLQPEDIATYYCQQGNTLPYTFGQGTKVEIKRTVAAPSVFIFPPSDEQLKSGTASVVCLLNNFYPREAKVQWKVDNALQSGNSQESVTEQDSKDSTYSLSSTLTLSKADYEKHKVYACEVTHQGLSSPVTKSFNRGEC
notes: also called Sample # 50
In assay [1], B2 had a koff of 0.000102 s⁻¹ and a kon of 144000 M⁻¹ s⁻¹.

B3: 20# (antibody, human IgG1, kappa)
heavy: QVQLQESGPGLVRPSQTLSLTCTVSGYSITSDHAWSWVRQPPGRGLEWIGYISYSGITTYNPSLKSRVTMLRDTSKNQFSLRLSSVTAADTAVYYCARCLARTTAMDYWGQGSLVTVSSASTKGPSVFPLAPSSKNTSGGTAALGCLVKDYFPEPVTVSWNSGALTSGVHTFPAVLQSSGLYSLSSVVTVPSSSLGTQTYICNVNHKPSNTKVDKKV[letters of human IgG1 Fc not shown]
light: DIQMTQSPSSLSASVGDRVTITCRASQDISSYLNWYQQKPGKAPKLLIYYTSRLHSGVPSRFSGSGSGTDFTFTISSLQPEDIATYYCQQGNTLPYTFGQGTKVEIKRTVAAPSVFIFPPSDEQLKSGTASVVCLLNNFYPREAKVQWKVDNALQSGNSQESVTEQDSKDSTYSLSSTLTLSKADYEKHKVYACEVTHQGLSSPVTKSFNRGEC
notes: also called Sample # 20
In the case of B3, in assay [1], the Kd turned out to be 751 pM, the “Relative Affinity” value was 1.8 fold vs 25 (Tocilizumab), the koff was 0.000158 s⁻¹ and the kon was found to be 210000 M⁻¹ s⁻¹.
